Reference: patent US20050026911A1, “Benzotriazapinone salts and methods for using same” (priority 2003, published 2005)

Biological target: T1, gastrin (CCK2) receptors (Rattus norvegicus, UniProt P30553)
T1 construct: The stomach was excised and flushed with ca. 1 ml of unbuffered physiological saline solution; from tissue; host or cells: isolated whole stomach of immature rats (ca. 21 days old)
T1 sequence (P30553 1-452): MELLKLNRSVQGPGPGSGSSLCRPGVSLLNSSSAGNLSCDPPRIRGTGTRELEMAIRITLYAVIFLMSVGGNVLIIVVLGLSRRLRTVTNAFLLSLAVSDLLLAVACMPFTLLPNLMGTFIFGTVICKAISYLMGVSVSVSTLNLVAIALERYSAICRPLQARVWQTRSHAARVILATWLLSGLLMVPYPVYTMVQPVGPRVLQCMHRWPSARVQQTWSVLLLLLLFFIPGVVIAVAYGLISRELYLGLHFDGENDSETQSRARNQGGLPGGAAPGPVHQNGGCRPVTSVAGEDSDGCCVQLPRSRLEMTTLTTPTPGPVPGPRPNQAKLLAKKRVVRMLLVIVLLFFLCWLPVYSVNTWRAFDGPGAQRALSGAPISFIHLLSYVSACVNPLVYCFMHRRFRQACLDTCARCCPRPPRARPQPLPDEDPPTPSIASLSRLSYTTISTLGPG
Assay: gastrin (CCK2) antagonist activity in an immature rat stomach assay
Conditions: pentagastrin dose-response curves, acid secretion, read-out: pKB rat stomach (converted)
Protocol: The compounds of the examples were tested for gastrin (CCK2) antagonist activity in an immature rat stomach assay. The procedure was as follows:
The oesophagus of immature rats (33-50 g, ca. 21 days old) was ligated at the level of the cardiac sphincter and the duodenal sphincter was cannulated. The stomach was excised and flushed with ca. 1 ml of unbuffered physiological saline solution. The fundus was punctured and cannulated. A further 4-5 ml of unbuffered solution was flushed through the stomach to ensure the preparation was not leaking. […] The stomach was continuously perfused at a rate of 1 ml min^−1 with unbuffered solution gassed with 100% O2 with the perfusate passing over an internally referenced pH-electrode fixed 12 cm above the stomach.
After 120 min of stabilisation the drugs were added directly to the serosal solution in the organ bath and after a further 60 min cumulative pentagastrin dose-response curves were started.

| SMILES | Kb [µM] |
| --- | --- |
| CC(C)(C)C(=O)CN1C(=O)N(CC(=O)Nc2cccc(CO)c2)N=C(C2CCCCC2)c2ccccc21 [Example 48, 2-[5-Cyclohexyl-1-(3,3-dimethyl-2-oxo-butyl)-2-oxo-1,2-dihydro-3H-1,3,4-benzotriazepin-3-yl]-N-(3-hydroxymethyl-phenyl)-acetamide] | 0.017 |
| CC(C)(C)C(=O)CN1C(=O)N(CC(=O)Nc2cccc(-c3cn(CC(=O)O)cn3)c2)N=C(C2CCCCC2)c2ccccc21 [Example 97, [4-(3-{2-[5-Cyclohexyl-1-(3,3-dimethyl-2-oxo-butyl)-2-oxo-1,2-dihydro-3H-1,3,4-benzotriazepin-3-yl]-acetylamino}-phenyl)-imidazol-1-yl]-acetic acid] | 0.0257 |
| CC(C)(C)C(=O)CN1C(=O)N(CC(=O)Nc2cccc(-c3cccn3CC(=O)O)c2)N=C(C2CCCCC2)c2ccccc21 [Example 158, [2-(3-{2-[5-Cyclohexyl-1-(3,3-dimethyl-2-oxo-butyl)-2-oxo-1,2-dihydro-3H-1,3,4-benzotriazepin-3-yl]-acetylamino}-phenyl)-pyrrol-1-yl]-acetic acid] | 0.00427 |
| Cc1ccccc1C(=O)CN1C(=O)N(CC(=O)Nc2cccc(C(=O)O)c2)N=C(C2CCCCC2)c2ccccc21 [Example 15, 3-{2-[5-Cyclohexyl-2-oxo-1-(2-oxo-2-o-tolyl-ethyl)-1,2-dihydro-3H-1,3,4-benzotriazepin-3-yl]-acetylamino}-benzoic acid] | 0.00955 |
| CC(C)(C)C(=O)CN1C(=O)N(CC(=O)Nc2cccc(OCC(=O)O)c2)N=C(C2CCCCC2)c2ccccc21 [Example 53, (3-{2-[5-Cyclohexyl-1-(3,3-dimethyl-2-oxo-butyl)-2-oxo-1,2-dihydro-3H-1,3,4-benzotriazepin-3-yl]-acetylamino}-phenoxy)-acetic acid] | 0.0209 |

Further lines, results first:

| Kb [µM] | SMILES |
| --- | --- |
| 0.145 | CC(C)(C)C(=O)CN1C(=O)N(CC(=O)Nc2cccc(N3CCCC3)c2)N=C(C2CCCCC2)c2ccccc21 [Example 27, 2-[5-Cyclohexyl-1-(3,3-dimethyl-2-oxo-butyl)-2-oxo-1,2-dihydro-3H-1,3,4-benzotriazepin-3-yl]-N-(3-pyrrolidin-1-yl-phenyl)-acetamide] |
| 0.0589 | O=C(CN1N=C(C2CCCCC2)c2ccccc2N(CC(=O)N2CCCC2)C1=O)Nc1cccc(C(=O)O)c1 [Example 20, 3-{2-[5-Cyclohexyl-2-oxo-1-(2-oxo-2-pyrrolidin-1-yl-ethyl)-1,2-dihydro-3H-1,3,4-benzotriazepin-3-yl]-acetylamino}-benzoic acid] |
| 0.00794 | CNc1cccc(NC(=O)CN2N=C(C3CCCCC3)c3ccccc3N(CC(=O)C(C)(C)C)C2=O)c1 [Example 3, 2-[5-Cyclohexyl-1-(3,3-dimethyl-2-oxo-butyl)-2-oxo-1,2-dihydro-3H-1,3,4-benzotriazepin-3-yl]-N-(3-methylamino-phenyl)-acetamide] |
| 0.000692 | CC(C)(C)C(=O)CN1C(=O)N(CC(=O)Nc2cccc(C(=O)O)c2)N=C(C2CCCCCC2)c2ccccc21 [Example 55, 3-{2-[5-Cycloheptyl-1-(3,3-dimethyl-2-oxo-butyl)2-oxo-1,2-dihydro-3H-1,3,4-benzotriazepin-3-yl]-acetylamino}-benzoic acid] |
| 0.0363 | CC(C)(C)C(=O)CN1C(=O)N(CC(=O)Nc2cccc(N)c2)N=C(C2CCCCC2)c2ccccc21 [Example 85, N-(3-Amino-phenyl)-2-[5-cyclohexyl-1-(3,3-dimethyl-2-oxo-butyl)-2-oxo-1,2-dihydro-3H-1,3,4-benzotriazepin-3-yl]-acetamide] |
